The source of these data is ChEMBL document CHEMBL3297727, “Endiandric acid analogues from Beilschmiedia ferruginea as dual inhibitors of Bcl-xL/Bak and Mcl-1/Bid interactions” (J Nat Prod, 2014).

Amino acid sequences for entries named in this document (tags omitted).
UniProt Q07820, whole entry: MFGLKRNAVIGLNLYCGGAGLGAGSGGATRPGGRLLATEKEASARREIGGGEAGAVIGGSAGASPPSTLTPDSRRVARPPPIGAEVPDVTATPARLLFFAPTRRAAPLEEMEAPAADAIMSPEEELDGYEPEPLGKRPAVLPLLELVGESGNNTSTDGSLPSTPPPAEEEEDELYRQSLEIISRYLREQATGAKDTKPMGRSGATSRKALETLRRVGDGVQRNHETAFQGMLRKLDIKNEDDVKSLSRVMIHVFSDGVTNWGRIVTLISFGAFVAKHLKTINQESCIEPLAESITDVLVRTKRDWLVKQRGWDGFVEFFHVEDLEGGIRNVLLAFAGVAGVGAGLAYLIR

By Ki is commonly meant the dissociation constant of the complex between target and ligand, obtained from inhibition or displacement.

For this experiment, the target named is Induced myeloid leukemia cell differentiation protein Mcl-1 (Homo sapiens, UniProt Q07820). Description: Displacement of fluorescein-labeled BID from His-tagged MCL-1 (unknown origin) after 1 hr by fluorescence polarization assay. Background: Polarisation of emitted light reports the rotation of a fluorescent probe.

On to `CN(C)CC[C@H](CSc1ccccc1)Nc1ccc(S(=O)(=O)NC(=O)c2ccc(N3CCN(Cc4ccccc4-c4ccc(Cl)cc4)CC3)cc2)cc1[N+](=O)[O-]` [ABT 737], for which the inhibition constant (Ki) amounted to 20.8 µM.
